The target in this assay is R132H mutant IDH1 enzyme (Homo sapiens (Human), UniProt O75874, R132H). Put plainly: R132H IDH1 Enzymatic Assay. It is filed as biochemical. The note with it: R132H mutant IDH1 enzyme 1.5 nM final; luminescence (Kinase-GLO) readout. On the technique in general: In Kinase-Glo more light means more ATP remaining.

Protein sequences, listed by entry. Tags and fused reporters are not part of them.
UniProt O75874, whole entry R132H: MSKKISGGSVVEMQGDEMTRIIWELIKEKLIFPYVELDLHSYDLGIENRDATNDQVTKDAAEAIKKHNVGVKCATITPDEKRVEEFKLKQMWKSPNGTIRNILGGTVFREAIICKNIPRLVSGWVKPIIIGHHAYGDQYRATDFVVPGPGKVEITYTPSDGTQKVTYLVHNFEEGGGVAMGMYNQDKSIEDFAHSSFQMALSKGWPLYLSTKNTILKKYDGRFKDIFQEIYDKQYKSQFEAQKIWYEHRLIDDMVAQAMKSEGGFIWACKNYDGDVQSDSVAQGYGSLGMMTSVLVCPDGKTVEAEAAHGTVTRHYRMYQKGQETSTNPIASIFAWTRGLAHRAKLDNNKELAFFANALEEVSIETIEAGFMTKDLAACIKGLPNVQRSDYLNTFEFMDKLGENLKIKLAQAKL

pIC50: −log10 of the molar value.

Turning to `O=C1OCCN1c1ccc2c(c1)N(C(=O)C1CCc3ccccc3CC1)Cc1cccnc1N2` [Example 124, 3-[6-(6,7,8,9-Tetrahydro-5H-benzo[7]annulen-7-ylcarbonyl)-6,11-dihydro-5H-pyrido[2,3-b][1,5]benzodiazepin-8-yl]-1,3-oxazolidin-2-one], the pIC50 (commonly the negative decadic logarithm of the IC50, by convention in mol/L) is 8.40.

On to `CC1NC(=O)OC1c1ccc2c(c1)N(C(=O)C1CCc3ccccc3CC1)Cc1cccnc1N2` (stereo not drawn) [Example 125, 4-Methyl-5-[6-(6,7,8,9-tetrahydro-5H-benzo[7]annulen-7-ylcarbonyl)-6,11-dihydro-5H-pyrido[2,3-b][1,5]benzodiazepin-8-yl]-1,3-oxazolidin-2-one], for which the negative-log IC50 (pIC50) is 8.52.

The compound `CC(C)[C@@H]1COC(=O)N1c1ccc2c(c1)N(C(=O)C1CCc3ccccc3CC1)Cc1cccnc1N2` [Example 126, (4R)-4-(1-Methylethyl)-3-[6-(6,7,8,9-tetrahydro-5H-benzo[7]annulen-7-ylcarbonyl)-6,11-dihydro-5H-pyrido[2,3-b][1,5]benzodiazepin-8-yl]-1,3-oxazolidin-2-one] gave a pIC50 of 8.52.

In turn, `O=C([C@H]1COc2ccccc2O1)N1Cc2cccnc2Nc2ccc(CCC(F)(F)F)cc21` [Example 127, (R)-(2,3-Dihydrobenzo[b][1,4]dioxin-2-yl)(8-(3,3,3-trifluoropropyl)-5,11-dihydro-6H-benzo[b]pyrido[2,3-e][1,4]diazepin-6-yl)methanone] gave a negative logarithm of the IC50 (pIC50) of 6.92.

As for `O=C([C@H]1COc2ccccc2O1)N1Cc2cccnc2Nc2ccc(C(F)(F)F)cc21` [Example 128, (R)-(2,3-Dihydrobenzo[b][1,4]dioxin-2-yl)(8-(trifluoromethyl)-5,11-dihydro-6H-benzo[b]pyrido[2,3-e][1,4]diazepin-6-yl)methanone], the pIC50 is 6.77.

`O=C([C@@H]1[C@@H]2C[C@H]1CN(CC(F)(F)F)C2)N1Cc2cccnc2Nc2ccc(N3CCOCC3)cc21` [Example 131, Cis[8-(morpholin-4-yl)-5,11-dihydro-6H-pyrido[2,3-b][1,5]benzodiazepin-6-yl][3-(2,2,2-trifluoroethyl)-3-azabicyclo[3.1.1]hept-6-yl]methanone]: the pIC50 was 6.94.

The values above are taken from US10086000B2, “Tricyclic compounds as inhibitors of mutant IDH enzymes” (Merck Sharp & Dohme Corp., priority 2014, dated 2018).
